{
  "source": "patent US20090029984A1",
  "about": "(priority 2005, published 2009)",
  "test_system": "mice",
  "key": {"[1]": {"conditions": "SR141716A 3.0 μmol/kg s.c. (−20 min), then saline + 10% tween 80 i.v."}},
  "data": [
    {"compound": "Cc1c(C(=O)NN2CCCCC2)nn(-c2ccc(Cl)cc2Cl)c1-c1ccc(Cl)cc1", "note": "[SR141716A, reference compound]", "values": [
      {"measurement": "% of MPE at Tmax", "setting": "[1]", "result": 0.9, "unit": "%"},
      {"measurement": "Tail flick latency (s) + s.e.m. at Tmax", "setting": "[1]", "result": "3.61 ± 0.35", "unit": "s"},
      {"measurement": "effect on tail flick latency (in words)", "setting": "SR141716A 3.0 μmol/kg s.c. alone", "result": "had no effect on the tail flick latency"}
    ]}
  ]
}
